Literature values, collected in article PMC4186439, “Characterization of a novel brain barrier ex vivo insect-based P-glycoprotein screening model” (Pharmacology Research & Perspectives, 2014).

System: Pgp transporter
Conditions: locust ex vivo and mouse Pgp KO/WT; ref Andersson et al. [2013]; Doran et al. [2005]; cited from earlier work

## Cc1nc2n(c(=O)c1CCN1CCC(c3noc4cc(F)ccc34)CC1)CCCC2 [risperidone]
  Pgp transporter efflux liability: affected by Pgp transporter efflux
